This passage reports Degeneracy results from patent US20060094649A1, “Hla-a1,-a2,-a3,-a24,-b7, and-b44 tumor associated antigen peptides and compositions” (priority 2002, published 2006).

This test concerns HLA-B44 supertype molecules. Briefly: HLA-B44 supertype cross-binding. Further details: species or system human. To be noted: number of the six B44 supertype alleles bound.

`CC(C)C[C@H](NC(=O)[C@H](CC(C)C)NC(=O)[C@H](Cc1ccccc1)NC(=O)[C@H](Cc1c[nH]cn1)NC(=O)[C@@H](NC(=O)[C@H](CC(C)C)NC(=O)[C@H](CCC(=O)O)NC(=O)[C@H](C)N)C(C)C)C(=O)O` displayed a Degeneracy of 5.

`CC(C)C[C@H](NC(=O)[C@H](CC(C)C)NC(=O)[C@H](CC(C)C)NC(=O)[C@H](Cc1ccccc1)NC(=O)[C@H](Cc1c[nH]cn1)NC(=O)[C@@H](NC(=O)[C@H](CC(C)C)NC(=O)[C@H](CCC(=O)O)NC(=O)[C@H](C)N)C(C)C)C(=O)O` registered a Degeneracy of 6.

As for `CC(C)C[C@H](NC(=O)[C@H](CC(C)C)NC(=O)[C@H](CC(C)C)NC(=O)[C@H](Cc1ccccc1)NC(=O)[C@H](Cc1c[nH]cn1)NC(=O)[C@@H](NC(=O)[C@H](CC(C)C)NC(=O)[C@H](CCC(=O)O)NC(=O)[C@H](C)N)C(C)C)C(=O)N[C@@H](CCCCN)C(=O)N[C@@H](Cc1ccc(O)cc1)C(=O)O`, the Degeneracy was 5.

In turn, `CSCC[C@H](NC(=O)[C@H](CCC(=O)O)NC(=O)[C@H](C)N)C(=O)N[C@@H](CC(C)C)C(=O)NCC(=O)N[C@@H](CO)C(=O)N[C@H](C(=O)N[C@H](C(=O)NCC(=O)O)C(C)C)C(C)C` yielded a Degeneracy of 5.

In turn, `CC(C)C[C@H](NC(=O)[C@H](Cc1ccc(O)cc1)NC(=O)[C@@H](NC(=O)[C@@H](NC(=O)[C@H](CC(N)=O)NC(=O)[C@H](CCC(N)=O)NC(=O)[C@H](C)NC(=O)[C@H](CCC(=O)O)NC(=O)[C@@H]1CCCN1C(=O)[C@H](CCC(=O)O)NC(=O)[C@@H](N)CS)[C@@H](C)O)[C@@H](C)O)C(=O)O` gave a Degeneracy of 1.

Molecule `C[C@@H](O)[C@H](NC(=O)[C@H](CO)NC(=O)[C@@H]1CCCN1C(=O)CNC(=O)[C@H](CCC(=O)O)NC(=O)[C@H](CCC(=O)O)NC(=O)[C@@H](N)CCC(=O)O)C(=O)N[C@@H](Cc1ccccc1)C(=O)O` displayed a Degeneracy of 3.

In turn, `CC(C)C[C@H](NC(=O)[C@H](CC(=O)O)NC(=O)[C@@H]1CCCN1C(=O)[C@H](Cc1ccccc1)NC(=O)[C@@H](NC(=O)[C@H](CO)NC(=O)[C@@H]1CCCN1C(=O)CNC(=O)[C@H](CCC(=O)O)NC(=O)[C@H](CCC(=O)O)NC(=O)[C@@H](N)CCC(=O)O)[C@@H](C)O)C(=O)O` yielded a Degeneracy of 3.

On to `CC(C)C[C@H](NC(=O)[C@H](CC(=O)O)NC(=O)[C@@H]1CCCN1C(=O)[C@H](Cc1ccccc1)NC(=O)[C@@H](NC(=O)[C@H](CO)NC(=O)[C@@H]1CCCN1C(=O)CNC(=O)[C@H](CCC(=O)O)NC(=O)[C@@H](N)CCC(=O)O)[C@@H](C)O)C(=O)O`, for which the Degeneracy was 4.

`CC[C@H](C)[C@H](NC(=O)[C@H](CCCCN)NC(=O)[C@H](CCC(=O)O)NC(=O)[C@@H](N)CCC(=O)O)C(=O)N[C@@H](Cc1c[nH]c2ccccc12)C(=O)N[C@@H](CCC(=O)O)C(=O)N[C@@H](CCC(=O)O)C(=O)N[C@@H](CC(C)C)C(=O)N[C@@H](CO)C(=O)N[C@H](C(=O)N[C@@H](CC(C)C)C(=O)O)C(C)C` returned a Degeneracy of 4.

The molecule `CC(C)C[C@H](NC(=O)[C@H](CCC(=O)O)NC(=O)[C@@H](N)CCC(=O)O)C(=O)N[C@@H](CO)C(=O)N[C@H](C(=O)N[C@@H](CC(C)C)C(=O)N[C@@H](CCC(=O)O)C(=O)N[C@H](C(=O)N[C@@H](Cc1ccccc1)C(=O)O)C(C)C)C(C)C` yielded a Degeneracy of 4.

Turning to `CC[C@H](C)[C@H](NC(=O)[C@H](CO)NC(=O)[C@H](CC(=O)O)NC(=O)[C@H](CCC(=O)O)NC(=O)[C@H](CCCNC(=N)N)NC(=O)CNC(=O)[C@H](CCC(=O)O)NC(=O)[C@@H](N)Cc1ccccc1)C(=O)O`, the Degeneracy turned out to be 2.

`CC[C@H](C)[C@H](NC(=O)[C@H](CO)NC(=O)[C@H](CC(=O)O)NC(=O)[C@H](CCC(=O)O)NC(=O)[C@H](CCCNC(=N)N)NC(=O)CNC(=O)[C@H](CCC(=O)O)NC(=O)[C@@H](N)Cc1ccccc1)C(=O)N[C@@H](CC(C)C)C(=O)O`: the Degeneracy is listed as 3.

Consider `CC[C@H](C)[C@H](NC(=O)[C@H](CO)NC(=O)[C@H](CC(=O)O)NC(=O)[C@H](CCC(=O)O)NC(=O)[C@H](CCCNC(=N)N)NC(=O)CNC(=O)[C@H](CCC(=O)O)NC(=O)[C@@H](N)Cc1ccccc1)C(=O)N[C@@H](CC(C)C)C(=O)NCC(=O)O`, for which the Degeneracy was 3.

The molecule `CC[C@H](C)[C@H](N)C(=O)N[C@@H](CCC(=O)O)C(=O)N[C@@H](CC(C)C)C(=O)N[C@@H](CCSC)C(=O)N[C@@H](CCC(=O)O)C(=O)N[C@H](C(=O)N[C@@H](CC(=O)O)C(=O)N1CCC[C@H]1C(=O)N[C@H](C(=O)O)[C@@H](C)CC)C(C)C` had a Degeneracy of 4.

For `CC[C@H](C)[C@H](N)C(=O)N[C@@H](CCC(=O)O)C(=O)N[C@@H](CC(C)C)C(=O)N[C@@H](CCSC)C(=O)N[C@@H](CCC(=O)O)C(=O)N[C@H](C(=O)N[C@@H](CC(=O)O)C(=O)N1CCC[C@H]1C(=O)N[C@H](C(=O)NCC(=O)O)[C@@H](C)CC)C(C)C`, the Degeneracy was found to be 1.

As to `CC[C@H](C)[C@H](NC(=O)[C@H](CO)NC(=O)[C@H](CC(=O)O)NC(=O)[C@H](CCC(=O)O)NC(=O)[C@H](CCCNC(=N)N)NC(=O)CNC(=O)[C@H](CCC(=O)O)NC(=O)[C@H](Cc1ccccc1)NC(=O)[C@@H](NC(=O)[C@H](CCC(=O)O)NC(=O)[C@@H](N)CC(C)C)C(C)C)C(=O)O`, the Degeneracy is listed as 2.

`CC[C@H](C)[C@H](NC(=O)[C@H](Cc1ccc(O)cc1)NC(=O)[C@H](CC(C)C)NC(=O)[C@H](Cc1c[nH]cn1)NC(=O)CNC(=O)[C@@H](NC(=O)[C@@H]1CCCN1C(=O)[C@H](CC(=O)O)NC(=O)[C@@H](NC(=O)[C@H](CCC(=O)O)NC(=O)[C@@H](N)CCSC)C(C)C)[C@@H](C)CC)C(=O)O` came in with a Degeneracy of 6.

`C[C@H](NC(=O)[C@H](C)NC(=O)[C@H](CCC(=O)O)NC(=O)[C@@H](N)CCC(N)=O)C(=O)N[C@@H](CO)C(=O)N[C@@H](CO)C(=O)N[C@@H](CO)C(=O)N[C@@H](CO)C(=O)N[C@H](C(=O)O)[C@@H](C)O`: the Degeneracy amounted to 2.

As to `CC(C)C[C@H](NC(=O)[C@@H](NC(=O)[C@H](CO)NC(=O)[C@H](CO)NC(=O)[C@H](CO)NC(=O)[C@H](CO)NC(=O)[C@H](C)NC(=O)[C@H](C)NC(=O)[C@H](CCC(=O)O)NC(=O)[C@@H](N)CCC(N)=O)[C@@H](C)O)C(=O)O`, the Degeneracy is recorded as 6.

`C[C@@H](O)[C@H](NC(=O)[C@H](CO)NC(=O)[C@@H]1CCCN1C(=O)CNC(=O)[C@H](CCC(=O)O)NC(=O)[C@H](CCC(=O)O)NC(=O)[C@H](CCC(=O)O)NC(=O)[C@@H](N)CCC(N)=O)C(=O)N[C@@H](Cc1ccccc1)C(=O)O` came in with a Degeneracy of 1.

Molecule `CC[C@H](C)[C@H](NC(=O)[C@H](CC(N)=O)NC(=O)[C@@H]1CCCN1C(=O)[C@@H](NC(=O)[C@H](Cc1ccccc1)NC(=O)[C@H](CC(C)C)NC(=O)[C@H](CCC(=O)O)NC(=O)[C@@H](N)CCC(N)=O)[C@@H](C)CC)C(=O)N[C@H](C(=O)N[C@H](C(=O)O)C(C)C)[C@@H](C)O` had a Degeneracy of 6.

As to `CC[C@H](C)[C@H](NC(=O)[C@H](CCCCN)NC(=O)[C@H](CCC(=O)O)NC(=O)[C@H](CCC(=O)O)NC(=O)[C@@H]1CCCN1C(=O)[C@H](C)NC(=O)[C@H](CS)NC(=O)[C@H](CC(=O)O)NC(=O)CNC(=O)[C@H](CCC(=O)O)NC(=O)[C@@H](N)CCCNC(=N)N)C(=O)O`, the Degeneracy is recorded as 2.

Turning to `CC(C)C[C@H](NC(=O)CNC(=O)[C@H](CO)NC(=O)[C@H](CC(N)=O)NC(=O)[C@H](CCCCN)NC(=O)[C@H](CCC(=O)O)NC(=O)[C@@H](N)[C@@H](C)O)C(=O)N[C@@H](Cc1ccc(O)cc1)C(=O)N[C@H](C(=O)O)[C@@H](C)O`, the Degeneracy was determined as 1.

Take `CC(C)C[C@H](NC(=O)[C@H](CCC(=O)O)NC(=O)[C@H](CCC(=O)O)NC(=O)[C@@H](N)Cc1c[nH]c2ccccc12)C(=O)N[C@@H](CO)C(=O)N[C@H](C(=O)N[C@@H](CC(C)C)C(=O)N[C@@H](CCC(=O)O)C(=O)N[C@H](C(=O)O)C(C)C)C(C)C`: the Degeneracy is on record as 3.

As to `CC(C)C[C@H](NC(=O)[C@H](C)NC(=O)[C@H](C)NC(=O)[C@H](CCC(N)=O)NC(=O)[C@H](Cc1ccccc1)NC(=O)[C@H](CCC(=O)O)NC(=O)[C@H](CO)NC(=O)[C@H](CCC(=O)O)NC(=O)[C@@H](N)CC(C)C)C(=O)O` [LESEFQAAL], the Degeneracy was 6.

`CSCC[C@H](N)C(=O)N[C@@H](CCC(=O)O)C(=O)N[C@@H](CC(C)C)C(=O)N[C@@H](C)C(=O)N[C@@H](C)C(=O)N[C@@H](CC(C)C)C(=O)N[C@@H](CS)C(=O)N[C@@H](CCCNC(=N)N)C(=O)N[C@@H](Cc1c[nH]c2ccccc12)C(=O)NCC(=O)N[C@@H](CC(C)C)C(=O)O` [compound 430] returned a Degeneracy of 6.

Molecule `CC(C)C[C@H](NC(=O)[C@H](CO)NC(=O)[C@H](C)NC(=O)[C@H](CC(N)=O)NC(=O)[C@@H](NC(=O)[C@@H]1CCCN1C(=O)[C@H](CC(C)C)NC(=O)[C@H](Cc1ccc(O)cc1)NC(=O)[C@@H](NC(=O)[C@H](CC(C)C)NC(=O)[C@H](CCC(=O)O)NC(=O)[C@@H](N)CC(C)C)[C@@H](C)O)[C@@H](C)O)C(=O)O` [compound 431] displayed a Degeneracy of 6.

Regarding `CC[C@H](C)[C@H](NC(=O)[C@H](CC(C)C)NC(=O)[C@@H](NC(=O)[C@H](Cc1ccc(O)cc1)NC(=O)CNC(=O)[C@H](CCC(N)=O)NC(=O)[C@@H](NC(=O)[C@H](CCC(=O)O)NC(=O)[C@@H](N)CCC(N)=O)C(C)C)C(C)C)C(=O)O` [compound 432], the Degeneracy turned out to be 6.

As for `CC(C)C[C@H](NC(=O)CNC(=O)[C@H](CCC(=O)O)NC(=O)CN)C(=O)N[C@@H](C)C(=O)N[C@@H](CS)C(=O)N[C@@H](Cc1c[nH]cn1)C(=O)N[C@@H](CCC(N)=O)C(=O)N[C@@H](CC(C)C)C(=O)N[C@@H](CS)C(=O)N[C@@H](C)C(=O)O` [compound 433], the Degeneracy is reported as 6.

Turning to `CC[C@H](C)[C@H](NC(=O)[C@H](CO)NC(=O)[C@@H](NC(=O)[C@H](CC(C)C)NC(=O)[C@@H]1CCCN1C(=O)[C@H](CO)NC(=O)[C@H](C)NC(=O)[C@H](CCCNC(=N)N)NC(=O)[C@H](CCC(N)=O)NC(=O)[C@H](CCC(=O)O)NC(=O)[C@H](C)N)[C@@H](C)O)C(=O)O` [compound 435], the Degeneracy amounted to 6.

`CC[C@H](C)[C@H](NC(=O)[C@@H]1CCCN1C(=O)[C@@H]1CCCN1C(=O)[C@H](CCC(N)=O)NC(=O)[C@@H]1CCCN1C(=O)[C@H](CC(C)C)NC(=O)[C@H](CCCNC(=N)N)NC(=O)[C@H](CCC(=O)O)NC(=O)CN)C(=O)O` [compound 437] came in with a Degeneracy of 6.
